Binding of CDR-mutated scFvs to a peptide of the spike HR2 region

All variants were tested on one target, the spike HR2 peptide PDVDLGDISGINAS (SARS-CoV-2).

The variants keep the heavy chain, the linker and the frameworks of Ab-14 (scFv order VH, a 15-residue (Gly4Ser)3 linker, VL).
VH: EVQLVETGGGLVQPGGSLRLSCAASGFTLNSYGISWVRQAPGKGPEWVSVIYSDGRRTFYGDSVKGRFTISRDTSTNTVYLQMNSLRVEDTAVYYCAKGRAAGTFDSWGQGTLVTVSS
VL: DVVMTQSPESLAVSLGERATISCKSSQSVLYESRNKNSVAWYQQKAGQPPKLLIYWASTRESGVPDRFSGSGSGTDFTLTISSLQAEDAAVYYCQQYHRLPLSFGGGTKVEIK

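Phage display of a naive human antibody library on the peptide gave the parent. This is the validation round: designs drawn from the data on random variants, tested in the same kind of assay. Group labels follow the data file (Ctrl: baseline library sampled from a position-specific scoring matrix, with some repeated check sequences; En: ensemble of fine-tuned language models; GP: Gaussian process model; HC: hill climbing; Gen: genetic algorithm; Gibbs: Gibbs sampling; a sequence that several methods proposed may carry one label only). Affinity was read by AlphaSeq, a pooled yeast mating assay with surface-displayed partners. Mating (16 h, 30 °C) was followed by selection of diploids and sequencing of their barcodes. Read counts were normalised to the haploid input and turned into Kd by a linear fit to BCL2-family pairs of known affinity, for each replicate. The assay was run in six technical replicates.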

Variants are written as CDR1, CDR2 and CDR3 of the light chain (limits as in the source). Parent: KSSQSVLYESRNKNSVA, WASTRES, QQYHRLPLS. Numbers give log10(Kd / nM), so 0 is 1 nM and 3 is 1 µM. Smaller is tighter. A mean of the replicates is given; it leaves out those without a signal. An entry "nd" has no value in the source: the pair was not observed among the diploids in any replicate. This suggests poor binding but is not conclusive. The range of this assay differs from that of the first round, and the authors advise against merging the two.

CDR-L1,CDR-L2,CDR-L3,group,mean log10 Kd (nM),replicates with signal,control signals
QIAGKLQHGGNQGDNVA,QGVETKN,QQYYTLPLT,En_Gibbs,nd,0/6,0/18
KFSQSVPYESRNKNSVA,DASTRES,QQYHRLPLS,GP_Gen,-0.07,6/6,0/18
KISQMVRVGQTHGNSIA,EEATRAK,QQYHRLPLA,En_Gen,0.94,6/6,0/18
KFSQSVLYESRNKNSVA,WASLREV,QQYHRLPLY,Ctrl,1.95,4/6,1/18
ALSQSMDMTSRNYNSVA,DLSTREN,QQYHRLPLS,En_HC,0.20,6/6,1/18
TISQVMNTLTRHGNNVA,DLENRED,QQYFRLPLS,En_Gen,0.37,6/6,1/18
HQSMSVLYESRNKNSVA,NGSTREV,QQYHRLPLS,GP_HC,0.41,6/6,2/18
KLSKMVMMESRNKNSVA,SASTREE,QQYHRLPLS,GP_Gibbs,-0.12,6/6,1/18
TISQMTSQFSQTINNVA,EVSTRCK,QQYDRLPLA,En_Gen,0.44,6/6,3/18
KLSQITGHLSVSKNNVA,EMVTRYN,QQYDRLPLS,En_Gen,2.32,5/6,1/18
KLDLTNGEEDKKGQNIA,EASTAGT,QSYWRLPLS,En_Gibbs,1.74,6/6,1/18
KFYQSYLYESRNKNSVA,NASTRES,QQYHRLPLS,GP_Gen,-0.51,6/6,1/18
KVSQSWLYESRNKNSVA,EASQRES,QQYHRLPLS,GP_Gen,0.04,6/6,1/18
KIDQWKLGESVNKNSVA,DASTRMS,QQYHRLPLS,GP_Gibbs,-0.16,6/6,1/18
MISQVMNSLTHTGNNVA,DLQEREE,QQYFRLPLS,En_Gen,0.82,6/6,1/18
KHSQSFLYESRNKNSVA,GASTRES,QQYHRLPLS,GP_HC,-0.08,6/6,0/18
KLQQQSLYGSRNKNSVA,SASTREQ,QQYHRLPLS,GP_Gibbs,-0.02,6/6,2/18
MMSSLMGYESRHINNVA,QTSTRES,QQYDRLPLM,En_Gen,0.69,6/6,0/18
KISMLINTTFEESNNVA,EMATREK,QQYNRLPLS,En_Gen,0.73,6/6,0/18
TISQSFMMENQFKNSVA,QASTREE,QCYDRLPLS,En_HC,nd,0/6,1/18
VLGTSTLEESRNKNSVA,EMSLRES,QSYNRLPLS,En_HC,0.59,6/6,0/18
KISKPWELGHPSTNAVA,NADIANA,QQYSRLPLS,En_Gibbs,-0.35,6/6,0/18
KFSQSVYYEERNKNSVA,WASTRES,QQYYRLPLS,Ctrl,0.67,6/6,0/18
GLSDQETEQIAHANSIA,DRDERDV,QQYSRLPLI,En_Gibbs,0.81,6/6,0/18
KLLWSVLYESNNKNSVA,HASTREQ,QQYHRLPLS,GP_HC,0.88,6/6,1/18
KVSQSDLYESRNKNSVA,EASTRCS,QQYHRLPLS,GP_Gen,0.61,5/6,0/18
KIAQLVNFLGKNKNSVA,QMSTREE,QQYDRLPLS,En_HC,1.00,6/6,0/18
KLRQSTLYESRNQNSVA,DASTRES,QQYHRLPLS,GP_HC,-0.29,6/6,1/18
KLGGVTEYEMMNNNSVA,QMTTRES,QQYHRLPLS,En_HC,1.09,6/6,0/18
KLPQSVLYESRNKNSVA,NASTRES,QQYHRLPLM,GP_Gen,-0.39,6/6,0/18
KNSISVLYESRNKNSVA,WASTRED,QQVHRLPCS,Ctrl,nd,0/6,1/18
KLSNSELYESRQKNSVA,QASQREM,QQYHRLPLS,GP_Gibbs,1.42,1/6,0/18
TISQMSTLFSQSIQNVA,EVSTRLN,QQYDRLPLA,En_Gen,0.52,6/6,4/18
KFQQSELYESRNKNSVA,NASTRMS,QQYHRLPLS,GP_Gen,-0.37,6/6,2/18
SNSQSVLYESQNKNSVA,WASTRES,QQYCRNPLS,Ctrl,nd,0/6,0/18
KLQQSVLYESRVKNSVA,NASTRES,QQYHRLPLS,GP_Gen,0.22,6/6,0/18
SLTAHHQEAKSAENSIA,EAVMLQS,QQYHQLPLM,En_Gibbs,1.11,6/6,0/18
MISQSFLIGSHAKNSVA,QTSTRES,QQYDRLPLS,En_HC,0.05,6/6,6/18
KVSQSVLYESGTKNSVA,NASQRES,QQYHRLPLS,GP_HC,0.00,6/6,1/18
KLMQSVLYESRNKNSVA,NASLRED,QQYHRLPLS,GP_HC,0.21,6/6,1/18
KSSESVLYEGYNKNSVA,WASTRES,QQYHGLPLS,Ctrl,2.48,6/6,2/18
KLSQSHLYEERNDNSVA,SASQRES,QQYHRLPLS,GP_Gibbs,0.17,6/6,3/18
KLPQSHLYESRNKNSVA,NASTRMS,QQYHRLPLS,GP_Gen,0.36,6/6,0/18
KSSQSVANESRNKNSVA,AVSTREQ,QQYHRLPLS,Ctrl,0.55,6/6,2/18
MISDLMLYGSRNANPIA,NASTREY,QQYHRLPLS,En_HC,0.15,6/6,4/18
KLSQSMPYEQRNKNSVA,NASQRES,QQYHRLPLS,GP_Gibbs,0.61,6/6,0/18
TIGPMLMTEMHNKNNVA,GMQTRER,QQYHRLPLS,En_HC,0.24,6/6,1/18
KLSQSWLYESRNSNNVA,DASTRES,QQYHRLPLS,GP_Gen,0.36,5/6,0/18
KLAQGWLYESRNKNSVA,NASQREH,QQYHRLPLS,GP_Gibbs,-0.23,6/6,1/18
KLSQSVLYESRNKNSIA,DASTRFS,QQWHRLPLS,Ctrl,0.66,6/6,0/18
KISQSQLYESRNTKSVA,NASTRCS,QQYHRLPLS,GP_Gibbs,0.05,6/6,1/18
KLSQQVLYESRNKNSVA,GASTRES,QQYHRLPLS,GP_Gen,-0.04,6/6,1/18
KSSQSVMYDSREKNSVA,AASTRES,QQYHRLPLS,Ctrl,1.16,6/6,0/18
MLSQVWGMGQRHRNNVA,QTSTREP,QQYDRLPLI,En_Gen,1.66,6/6,0/18
KIMQSLNYSQFNVSNVA,GQETRER,QSYHRLPLS,En_HC,1.96,6/6,5/18
MVTQMAMTGMMNKRSVA,NAETREY,QQYHRLPLI,En_Gen,0.78,3/6,0/18
KISGMYQKESKNRNSVA,EMVNRES,QQYDRLPLS,En_HC,0.72,6/6,0/18

In the paper, a design with two or fewer of six values counts as a poor binder. Nonspecific signal, from three strains lacking the peptide, appeared in 4% of pairings of all light chain designs, centred on 2.64 (5% of these signals below 1.59); values are not corrected for it. The control count says in how many pairings with the empty strains this scFv gave a signal. Of ten entries with the parent sequence, four were seen in most replicates (averages 0.34 to 2.37), three in one and three in none, so single entries are noisy.

Data: MIT Lincoln Laboratory AlphaSeq set, Li et al. 2023, doi:10.1038/s41467-023-39022-2, as distributed in FLAb.